# Molecular target: COX-2
# Assay: Evaluation of COX-2 activity in vitro (PGE2 ELISA, recombinant enzyme)
# Format: biochemical, human or murine
# Conditions: read-out: COX-2 IC50, arachidonic acid 10 μM, pH 8.0, pre-incubation 10-20 minutes
compound,measurement,value
"NS(=O)(=O)c1ccc(-c2c(-c3ccccc3)noc2CO)cc1 [Example 10, 4-[5-Hydroxymethyl-3-phenylisoxazol-4-yl]benzenesulfonamide]",IC50,200 nM

# From patent publication US5859257A (dated 1999)
